Chains of the proteins cited; added tags and fusions are not shown. Lines headed by an entry give the natural chain unless they say otherwise; changes in a name come on top.
UniProt Q02763: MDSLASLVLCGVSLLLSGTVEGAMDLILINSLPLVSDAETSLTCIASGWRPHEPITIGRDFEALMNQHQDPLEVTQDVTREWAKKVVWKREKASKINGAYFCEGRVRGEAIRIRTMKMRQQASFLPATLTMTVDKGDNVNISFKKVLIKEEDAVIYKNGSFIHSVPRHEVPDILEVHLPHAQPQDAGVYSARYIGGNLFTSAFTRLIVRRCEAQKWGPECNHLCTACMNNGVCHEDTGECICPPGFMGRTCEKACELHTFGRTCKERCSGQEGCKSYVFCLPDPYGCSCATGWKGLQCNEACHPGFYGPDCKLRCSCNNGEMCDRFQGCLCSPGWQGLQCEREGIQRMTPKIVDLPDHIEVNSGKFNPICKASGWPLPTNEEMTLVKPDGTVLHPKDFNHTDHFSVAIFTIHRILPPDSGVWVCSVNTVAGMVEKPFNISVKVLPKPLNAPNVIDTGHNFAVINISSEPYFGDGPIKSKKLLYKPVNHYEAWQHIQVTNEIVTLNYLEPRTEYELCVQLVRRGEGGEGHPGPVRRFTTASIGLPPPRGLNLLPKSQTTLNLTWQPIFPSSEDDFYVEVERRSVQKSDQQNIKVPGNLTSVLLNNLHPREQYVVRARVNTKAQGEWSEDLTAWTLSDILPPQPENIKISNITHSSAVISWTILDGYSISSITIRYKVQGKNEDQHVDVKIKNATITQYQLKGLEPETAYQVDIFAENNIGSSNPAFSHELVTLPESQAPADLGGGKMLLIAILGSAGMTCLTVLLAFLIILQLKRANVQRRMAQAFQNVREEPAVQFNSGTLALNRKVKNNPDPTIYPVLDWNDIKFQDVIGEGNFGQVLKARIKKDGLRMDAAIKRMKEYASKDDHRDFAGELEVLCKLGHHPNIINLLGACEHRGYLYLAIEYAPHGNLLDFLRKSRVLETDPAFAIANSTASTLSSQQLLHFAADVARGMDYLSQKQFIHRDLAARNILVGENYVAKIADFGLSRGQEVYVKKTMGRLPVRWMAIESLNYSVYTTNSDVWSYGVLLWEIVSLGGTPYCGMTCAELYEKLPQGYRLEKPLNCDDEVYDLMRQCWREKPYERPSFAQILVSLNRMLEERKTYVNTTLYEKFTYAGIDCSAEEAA
UniProt Q08345: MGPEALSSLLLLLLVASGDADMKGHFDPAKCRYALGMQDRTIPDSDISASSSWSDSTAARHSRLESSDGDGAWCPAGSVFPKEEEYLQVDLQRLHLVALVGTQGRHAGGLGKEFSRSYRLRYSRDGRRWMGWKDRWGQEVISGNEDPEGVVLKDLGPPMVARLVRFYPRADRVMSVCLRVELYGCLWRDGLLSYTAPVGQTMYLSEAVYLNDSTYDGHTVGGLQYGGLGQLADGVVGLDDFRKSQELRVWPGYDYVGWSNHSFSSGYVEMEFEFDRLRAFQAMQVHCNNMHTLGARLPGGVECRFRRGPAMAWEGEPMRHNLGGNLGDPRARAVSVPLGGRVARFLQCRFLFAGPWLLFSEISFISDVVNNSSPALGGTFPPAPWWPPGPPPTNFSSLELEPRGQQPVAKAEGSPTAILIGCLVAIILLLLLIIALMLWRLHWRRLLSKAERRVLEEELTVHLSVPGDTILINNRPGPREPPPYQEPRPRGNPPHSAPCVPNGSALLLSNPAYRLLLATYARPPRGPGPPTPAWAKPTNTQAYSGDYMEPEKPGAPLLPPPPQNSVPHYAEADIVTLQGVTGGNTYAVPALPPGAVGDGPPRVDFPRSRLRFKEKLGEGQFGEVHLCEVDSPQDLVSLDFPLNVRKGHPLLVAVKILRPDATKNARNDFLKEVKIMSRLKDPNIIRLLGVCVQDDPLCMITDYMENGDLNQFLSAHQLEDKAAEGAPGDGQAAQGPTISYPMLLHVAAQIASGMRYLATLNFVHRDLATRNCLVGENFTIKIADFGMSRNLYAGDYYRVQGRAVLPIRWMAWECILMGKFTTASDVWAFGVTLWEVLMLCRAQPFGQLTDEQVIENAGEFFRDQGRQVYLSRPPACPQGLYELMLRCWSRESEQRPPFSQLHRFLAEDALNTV
UniProt Q15375: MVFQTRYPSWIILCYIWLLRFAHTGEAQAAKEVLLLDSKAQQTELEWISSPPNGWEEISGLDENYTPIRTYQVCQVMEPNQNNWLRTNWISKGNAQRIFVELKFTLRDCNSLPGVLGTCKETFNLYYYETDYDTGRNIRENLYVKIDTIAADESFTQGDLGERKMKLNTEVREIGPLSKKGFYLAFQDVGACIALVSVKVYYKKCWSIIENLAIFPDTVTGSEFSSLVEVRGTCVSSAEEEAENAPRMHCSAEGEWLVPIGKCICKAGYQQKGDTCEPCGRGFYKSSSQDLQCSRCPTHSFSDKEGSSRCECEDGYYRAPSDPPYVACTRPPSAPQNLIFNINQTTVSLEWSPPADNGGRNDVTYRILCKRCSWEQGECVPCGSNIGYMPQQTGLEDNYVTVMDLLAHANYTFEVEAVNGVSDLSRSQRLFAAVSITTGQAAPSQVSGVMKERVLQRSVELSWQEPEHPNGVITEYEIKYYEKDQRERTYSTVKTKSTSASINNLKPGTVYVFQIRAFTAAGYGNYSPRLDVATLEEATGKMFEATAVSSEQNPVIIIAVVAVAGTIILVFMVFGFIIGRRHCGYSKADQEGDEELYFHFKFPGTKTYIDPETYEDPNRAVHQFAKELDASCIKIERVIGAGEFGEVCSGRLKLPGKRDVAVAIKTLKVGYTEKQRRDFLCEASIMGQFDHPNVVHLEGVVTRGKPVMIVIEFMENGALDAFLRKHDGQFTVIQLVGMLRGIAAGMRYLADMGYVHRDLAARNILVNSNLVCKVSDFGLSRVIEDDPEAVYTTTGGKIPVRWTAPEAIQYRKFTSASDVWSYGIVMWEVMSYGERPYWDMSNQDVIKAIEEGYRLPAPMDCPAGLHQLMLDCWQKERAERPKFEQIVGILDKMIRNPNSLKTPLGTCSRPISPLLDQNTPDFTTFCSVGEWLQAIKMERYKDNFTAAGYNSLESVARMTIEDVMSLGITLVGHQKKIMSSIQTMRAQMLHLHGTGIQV

In ChEMBL document CHEMBL5154866 (J Med Chem, 2022):

Columns and labels:
[1] = molecular target: Angiopoietin-1 receptor (Homo sapiens, UniProt Q02763); test: Inhibition human wild type partial length Tie2 (N804 to T1112 residues) expressed in bacterial expression system assessed as residual activity at 1 uM by Kinomescan method relative to control
[2] = molecular target: Epithelial discoidin domain-containing receptor 1 (Homo sapiens, UniProt Q08345); test: Inhibition of human wild type partial length DDR1 (R565 to V876 residue) expressed in bacterial expression system assessed as residual activity at 1 uM by Kinomescan method relative to control
[3] = molecular target: Ephrin type-A receptor 7 (Homo sapiens, UniProt Q15375); test: Inhibition of human wild type partial length EphA7 (Y608 to S912 residues) expressed in bacterial expression system assessed as residual activity 1 uM by Kinomescan method relative to control

For Cc1cn(-c2cc(NC(=O)c3cc4cc(c3C)C#Cc3cnc5ccc(nn35)N(C)CCNC(=O)CCCCO4)cc(C(F)(F)F)c2)cn1, the Activity [1] was 9%, the Activity [2] was 9% and the Activity [3] was 2%.
